# Experimental data as given in PubChem BioAssay AID651965 (National Center for Advancing Translational Sciences (NCATS), 2013).
# The chains behind the UniProt entries cited, without tags or fusion partners.
# UniProt P80244, whole entry: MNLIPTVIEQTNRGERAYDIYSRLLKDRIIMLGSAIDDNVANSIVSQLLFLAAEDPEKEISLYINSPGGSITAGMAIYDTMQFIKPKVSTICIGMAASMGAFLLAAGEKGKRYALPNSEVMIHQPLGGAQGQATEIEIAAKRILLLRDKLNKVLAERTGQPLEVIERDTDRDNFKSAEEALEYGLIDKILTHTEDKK
# Where “and” joins values, the source holds several entries; their conditions need not be identical. Equal values may be shown once. This is a selection; strong and weak results do not stand in their true shares. Some of these compounds have results that are not shown, active ones among them. Inconclusive results are not listed. Calls of active or inactive are those of the source. Calls follow the shape of the dose curve; as a rule, active = well fitted falling curve with a large enough effect; inconclusive = small, poorly fitted or top-dose-only effect; inactive = no such curve, though single readings can be large or run the other way.
# Target: ATP-dependent Clp protease proteolytic subunit (Bacillus subtilis (strain 168)) (UniProt P80244)
# Assay: qHTS Assay for Activators of ClpP; also: the source files actives as falling curves though it sought activators and does not explain the sign; nearly all actives have a fitted effect of over 65% in size
# Conditions: purified B. subtilis ClpP, FRET peptide cleavage, 20 min; at 57.5 µM (top of the series)
row,Compound,"activity change, negative = active"
1,CN(C)C1(CNC(=O)c2ccccc2F)CCCCC1,inactive: 1.14%
2,CC(C)N1C(=O)CC2(CCN(CCOC(=O)C(O)(c3ccccc3)c3ccccc3)CC2)C1=O,inactive: 3.33%
3,CN(C)C1(CNC(=O)c2cccc(Cl)c2)CCCCC1,inactive: 0.753%
4,COc1cc(SC)ccc1C(=O)NCC1(N(C)C)CCCCC1,inactive: -0.786%
5,CN1[C@@H]2CC[C@H]1CC(OC(=O)C(O)(c1ccccc1)c1ccccc1)C2 (some centres not stated),inactive: 0.799%
6,COc1ccc(C(=O)NCC2(N(C)C)CCCCC2)cc1,inactive: 0.208%
7,CCOc1cccc(C(=O)NCC2(N(C)C)CCCCC2)c1,inactive: -1.76%
8,C=CCN1CCN(CCOC(=O)C(O)(c2ccccc2)c2ccccc2)CC1,inactive: 2.25%
9,O=C(NCC1(N2CCCCC2)CCCCC1)c1cc(F)c(F)cc1Cl,inactive: -0.135%
10,CCCCOc1ccccc1C(=O)NCC1(N(C)C)CCCCC1,inactive: -2.07%
11,CN(C)C1(CNC(=O)c2ccccc2[N+](=O)[O-])CCCCC1,inactive: -4.62%
12,Cc1ccccc1C(=O)NCC1(N2CCCCC2)CCCCC1,inactive: -1.52%
13,CN(C)C1CCCC1OC(=O)C(O)(c1ccccc1)c1ccccc1 (configuration not stated),inactive: -3.54%
14,CN(C)c1ccc(C(=O)NCC2(N(C)C)CCCCC2)cc1,inactive: -6.03%
15,COc1ccc(C(=O)NCC2(N(C)C)CCCCC2)cc1Cl,inactive: -0.669%
16,COc1cc(C(=O)NCC2(N(C)C)CCCCC2)c([N+](=O)[O-])cc1OC,inactive: 0.13%
17,O=C(CBr)c1ccc(Cl)cc1,inactive: 0.273%
18,CN(C)c1cccc(C(=O)NCC2(N(C)C)CCCCC2)c1,inactive: 11.3%
19,CC(C)Oc1ccc(C(=O)NCC2(N(C)C)CCCCC2)cc1,inactive: -0.959% and inactive: -26.4%
20,O=C(OCCN1CCCC1)C(O)(c1ccccc1)c1ccccc1,inactive: -3.44%
21,COc1cc(C(=O)NCC2(N(C)C)CCCCC2)cc(OC)c1OC,inactive: -6.62%
22,Cc1cccc(C(=O)NCC2(N(C)C)CCCCC2)c1,inactive: 0.326%
23,COc1ccc(Br)c(C(=O)NCC2(N3CCCCC3)CCCCC2)c1,inactive: -3.66%
24,C=C(C)C#CC(O)(C(=O)OC1CCN(C)CC1)c1ccccc1 (configuration not stated),inactive: -1.39%
25,CC(C)COc1ccc(C(=O)NCC2(N(C)C)CCCCC2)cc1,inactive: 1.04%
26,O=C(OC1CN2CCC1CC2)C(CO)(c1ccccc1)c1ccccc1 (configuration not stated),inactive: -2.27%
27,COc1cccc(C(=O)NCC2(N3CCOCC3)CCCCC2)c1,inactive: -2.28%
